Target: KRas G12C (Homo sapiens, UniProt P01116, G12C)
Assay: Inhibition of KRas G12C-dependent cell growth: Phospho-ERK in NCI-H358 cells
Details: NCI-H358 cells expressing KRas G12C; Phospho-ERK (Thr202/Tyr204) normalized to GAPDH; 3 hours compound; 4 parameter fit

Protein sequences, listed by entry. Tags and fused reporters are not part of them. Residues count along the entry.
UniProt P01116, 1-188 isoform 2 G12C limits assumed: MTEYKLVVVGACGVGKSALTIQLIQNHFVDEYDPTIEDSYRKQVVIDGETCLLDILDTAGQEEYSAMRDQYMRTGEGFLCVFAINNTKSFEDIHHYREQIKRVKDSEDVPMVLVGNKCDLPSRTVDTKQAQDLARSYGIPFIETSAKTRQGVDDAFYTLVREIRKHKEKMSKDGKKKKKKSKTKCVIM

Structure (SMILES) | IC50 [µM]
C=C(F)C(=O)N1CCN(c2nc(OCC3CCN3C3CC3)nc3c(F)c(-c4cccc5cccc(Cl)c45)ncc23)C[C@@H]1CC#N (some centres unmarked) | 0.031
O=C(/C=C/CF)N1CCN(c2ncnc3c(F)c(-c4cccc5ccc(F)c(Cl)c45)ncc23)CC1 | 10
O=C(/C=C/C(F)F)N1CCN(c2ncnc3c(F)c(-c4cccc5ccc(F)c(Cl)c45)ncc23)CC1 | 10
O=C(/C=C/C(F)(F)F)N1CCN(c2ncnc3c(F)c(-c4cccc5ccc(F)c(Cl)c45)ncc23)CC1 | 10
C=CC(=O)N1CCN(c2ncnc3c(F)c(-c4cc(C)cc5ccccc45)ncc23)CC1 | 10

Source: patent US11548888B2, “KRas G12C inhibitors” (Mirati Therapeutics, Inc., priority 2019, dated 2023)
